Data set [1] is described as follows: Pharmacokinetic test in mice. Conditions: male ICR mice, oral intragastric, single dose 5 mg/kg, plasma.
The target of the next data set is D2S receptor (Homo sapiens, UniProt P14416). Nature of the data set: D2S receptor cAMP agonist test. To be noted: HEK293 cell strain stably expressing D2S receptor; for D2S Max Act %: positive control dopamine 1×10^−7 M; for EC50: read-out: D2S EC50, cAMP, forskolin 5×10^−7 M. The data set is classed as cell-based.
The target in the next data set is 5-HT2A receptor (Homo sapiens, UniProt P28223). Kind of data set: Calcium flux test for 5-HT2A receptor. The data set is classed as cell-based. Conditions: CHO cell strain stably expressing 5-HT2A receptor; for 5-HT2A Max Inh %: positive control ketanserin 10^−7 M; for IC50: read-out: 5-HT2A IC50, calcium flux, antagonism of serotonin. Background: Calcium flux is commonly read through the fluorescence of an indicator in the cells.

Sequences of proteins named here, by UniProt entry; tags and fusion partners are left off. A change or cut given only in a name is not applied to a line headed by its entry. Residues count along the entry.
UniProt P14416, whole entry: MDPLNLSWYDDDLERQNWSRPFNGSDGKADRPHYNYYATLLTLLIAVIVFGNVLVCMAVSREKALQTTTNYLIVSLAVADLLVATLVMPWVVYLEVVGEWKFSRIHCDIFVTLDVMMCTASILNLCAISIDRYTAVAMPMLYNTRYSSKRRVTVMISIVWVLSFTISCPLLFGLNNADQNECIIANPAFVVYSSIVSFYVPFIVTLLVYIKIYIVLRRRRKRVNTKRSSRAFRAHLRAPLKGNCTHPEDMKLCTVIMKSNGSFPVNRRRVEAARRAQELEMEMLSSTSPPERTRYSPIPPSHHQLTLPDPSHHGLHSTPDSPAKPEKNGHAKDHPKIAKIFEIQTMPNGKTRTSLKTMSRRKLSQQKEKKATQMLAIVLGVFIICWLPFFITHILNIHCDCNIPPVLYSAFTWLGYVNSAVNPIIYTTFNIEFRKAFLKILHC
UniProt P14416, 1-414 isoform 2: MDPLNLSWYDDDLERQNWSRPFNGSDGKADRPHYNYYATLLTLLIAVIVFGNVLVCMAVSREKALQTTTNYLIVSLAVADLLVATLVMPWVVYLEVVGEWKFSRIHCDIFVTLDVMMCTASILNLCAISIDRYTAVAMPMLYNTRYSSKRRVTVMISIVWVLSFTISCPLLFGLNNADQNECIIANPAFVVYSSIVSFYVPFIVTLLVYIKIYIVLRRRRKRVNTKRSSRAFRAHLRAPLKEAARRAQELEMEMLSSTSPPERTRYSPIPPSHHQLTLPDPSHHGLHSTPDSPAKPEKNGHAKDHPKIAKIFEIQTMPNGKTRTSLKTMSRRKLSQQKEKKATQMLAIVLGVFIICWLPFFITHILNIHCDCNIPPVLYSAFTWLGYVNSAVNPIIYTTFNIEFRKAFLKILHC
UniProt P28223, whole entry: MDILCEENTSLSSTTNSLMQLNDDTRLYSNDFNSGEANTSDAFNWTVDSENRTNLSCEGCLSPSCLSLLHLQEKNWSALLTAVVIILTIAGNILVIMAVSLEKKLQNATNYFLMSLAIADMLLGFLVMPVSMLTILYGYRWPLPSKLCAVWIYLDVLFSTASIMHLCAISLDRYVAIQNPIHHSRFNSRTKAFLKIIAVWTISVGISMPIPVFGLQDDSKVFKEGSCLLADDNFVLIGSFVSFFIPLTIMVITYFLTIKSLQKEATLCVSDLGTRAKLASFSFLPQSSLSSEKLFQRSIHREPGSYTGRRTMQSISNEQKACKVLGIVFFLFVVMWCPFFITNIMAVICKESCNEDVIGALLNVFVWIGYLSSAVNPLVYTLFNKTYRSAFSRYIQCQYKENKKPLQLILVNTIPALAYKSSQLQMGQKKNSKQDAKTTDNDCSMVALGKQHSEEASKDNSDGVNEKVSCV
UniProt P08908, whole entry: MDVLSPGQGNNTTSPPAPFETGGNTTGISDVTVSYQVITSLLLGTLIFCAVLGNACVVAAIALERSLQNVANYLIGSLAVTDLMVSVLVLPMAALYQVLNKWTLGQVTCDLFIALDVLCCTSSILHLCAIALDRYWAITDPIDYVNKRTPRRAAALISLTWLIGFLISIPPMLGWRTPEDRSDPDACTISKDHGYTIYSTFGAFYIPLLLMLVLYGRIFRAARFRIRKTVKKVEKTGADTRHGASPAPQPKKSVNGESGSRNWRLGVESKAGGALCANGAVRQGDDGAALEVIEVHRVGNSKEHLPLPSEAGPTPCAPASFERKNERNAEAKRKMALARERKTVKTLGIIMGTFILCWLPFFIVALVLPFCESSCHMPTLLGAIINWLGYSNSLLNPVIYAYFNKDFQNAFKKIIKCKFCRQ

A further data set has as its target 5-HT1A receptor (Homo sapiens, UniProt P08908). Nature of the data set: 5-HT1A receptor cAMP agonist test. It counts as cell-based. Conditions: HEK293 cell strain stably expressing 5-HT1A receptor; for 5-HT1A Max Act %: positive control serotonin 10^−6 M; for EC50: read-out: 5-HT1A EC50, cAMP, forskolin 2.5×10^−7 M.
For the next data set, the target named is D2L receptor (Homo sapiens, UniProt P14416). Kind of data set: D2L receptor cAMP agonist test. To be noted: HEK293 cell strain stably expressing D2L receptor; for D2L Max Act %: positive control dopamine 1 μM; for EC50: read-out: D2L EC50, cAMP, forskolin 0.5 μM. The data set is classed as cell-based.

On to `O=C1Nc2cc(OCCCCN3CCN(c4cccc5c4OC(F)(F)O5)CC3)ccc2C2CC12` (single isomer, unassigned) [Example 41-P1], for which, in data set [1], the “AUC(0-inf)” value stood at 12950.5 ng·h/mL, the Cmax is given as 1593.3 ng/mL and the t1/2 is 6.4 h. At D2S receptor, the “D2S Max Act %” value came to 114.2% and the EC50 worked out at 0.93 nM. Also, on 5-HT2A receptor, the “5-HT2A Max Inh %” value was determined as 88.2% and the IC50 was found to be 2910 nM. Moreover, at 5-HT1A receptor, the “5-HT1A Max Act %” value was 99.0% and the EC50 came out at 36.5 nM. At D2L receptor, the “D2L Max Act %” value is recorded as 46.7% and the EC50 was 0.78 nM.
Take `O=C1Nc2cc(OCCCCN3CCN(c4cccc5c4OC(F)(F)O5)CC3)ccc2C2CC12` (single isomer, unassigned) [Example 41-P2]: in data set [1], the “AUC(0-inf)” value was 13958.8 ng·h/mL, the Cmax came to 701.3 ng/mL and the t1/2 turned out to be 15.9 h. Also, on D2S receptor, the “D2S Max Act %” value is 113.4% and the EC50 came to 0.96 nM. In addition, at 5-HT2A receptor, the “5-HT2A Max Inh %” value was 88.2% and the IC50 came out at 3450 nM. For the same compound, on 5-HT1A receptor, the “5-HT1A Max Act %” value came to 96.2% and the EC50 worked out at 18.6 nM. In addition, on D2L receptor, the “D2L Max Act %” value is 58.6% and the EC50 was 0.36 nM.
In the case of `O=C1Nc2cc(OCCCCN3CCN(c4cccc5c4CC(F)(F)C5)CC3)ccc2C2CC12` (single isomer, unassigned) [Example 46-P2], in data set [1], the “AUC(0-inf)” value turned out to be 6094.3 ng·h/mL, the Cmax is listed as 837.7 ng/mL and the t1/2 is 5.3 h. Also, the “D2S Max Act %” value on D2S receptor was 110.2%. Moreover, on 5-HT2A receptor, the “5-HT2A Max Inh %” value is 90.9% and the IC50 is 535 nM. Further, on 5-HT1A receptor, the “5-HT1A Max Act %” value turned out to be 59.3% and the EC50 was 258 nM. Also, at D2L receptor, the “D2L Max Act %” value is given as 43.6% and the EC50 worked out at 0.38 nM.
`O=C1Nc2cc(OCCCCN3CCN(c4cccc5c4CC(F)(F)C5)CC3)ccc2C2CC12` (single isomer, unassigned) [Example 46-P1]: in data set [1], the “AUC(0-inf)” value was determined as 6287.5 ng·h/mL, the Cmax came out at 1240.7 ng/mL and the t1/2 came out at 2.9 h. Moreover, at D2S receptor, the “D2S Max Act %” value is given as 113.3% and the EC50 came to 0.96 nM. For the same compound, at 5-HT2A receptor, the “5-HT2A Max Inh %” value came out at 96.4% and the IC50 was found to be 910 nM. On 5-HT1A receptor, the “5-HT1A Max Act %” value is on record as 67.7% and the EC50 stood at 345 nM. Moreover, at D2L receptor, the “D2L Max Act %” value is 42.2% and the EC50 was determined as 0.49 nM.

Usually AUC(0-inf) stands for total exposure, with the tail of the curve extrapolated. High values mean more exposure, low ones less exposure. What is called Cmax is the peak of the concentration-time curve. By EC50 is commonly meant the concentration needed to bring the measured effect to its halfway point. For orientation: IC50 means the concentration at which inhibition is half-maximal.

The record behind these values is US20240368115A1, “REGULATOR CONTAINING TRICYCLIC DERIVATIVE, PREPARATION METHOD THEREFOR AND APPLICATION THEREOF” (SHUJING BIOPHARMA CO., LTD, priority 2021, published 2024).
